The series relates to fish. Briefly: Fish school behaviour in contaminated test tank (Tank B) versus control tank (Tank A), video monitoring. The conditions noted are these: about 20 fish, Tank B (contaminated water) vs control Tank A, about 20,000 frames, fish put into water at Frame 0. The text has this: In the example embodiment, images are captured at about six frames per second. However, it should be appreciated that a different number of frames per second can also be used. A tracking module is used to associate the same fish throughout the image sequence. Using the spatial information provided by its physical dimension and position mapped on the images, each fish i can be represented by a set of coordinates of the pixels which it occupies.
The activity level of the fish school in the example embodiment can be determined by how fast the fish swim and the complexity of their swimming path. The speed of each fish in the confinement area can be calculated by taking the displacement of its position between consecutive frames. […]
The distribution of a fish school is determined in the example embodiment by the population of fish in different parts of the confinement structure. […]
In the example embodiment, the probability of avoidance behaviour is calculated over a specified number of frames, with each frame having the same weightage, and the probability would increase if the percentage of fish found in the monitored region is less than a certain level, i.e. if most of the fish school is swimming along the sides of the confinement structure, the probability of avoiding the centre region will increase as Q for the centre region is less than T. […]

As for Chlorine, the overall school speed result is “relative hyperactivity after being placed into the tank and start to swim more lethargically after a while”.
